Reference: patent US10681911B2, “Anthelminthic composition” (AgResearch Limited, priority 2016, dated 2020)
Some compounds may have been tested in ways that are not shown here.

How the values were obtained:
[1] = system: ryegrass white clover pasture; assay: Field study, pasture colour and legume damage; conditions: 250 L/ha; assessed 4.5 hrs, 48 hours and 4 days after application; FIG. 2
[2] = pH of petri-dish test solutions after mixing and after 24 hours; format: physicochemical

ammonium nitrate
impact on pasture colour and legume damage [1]: greater impact on pasture colour and legume leaf health than calcium hydroxide
pH 24 ([2]; solution after 24 hours): 5.7
pH 0 ([2]; solution immediately after mixing (0 hours)): 5.9
